Laboratory results as given in publication PMC2710984.

Molecular target: GST–BIR3 fusion protein (XIAP BIR3 domain)
Assay: FMAT bead-based fluorescence competition assay

Binder: AVAF (C-terminal primary amide) [Reaper 4-mer peptide AVAF (compound 6)]
- IC50: 750 nM
